Results from a protein production outcome set (Wang et al. 2014).

Assay: label from the status in PepcDB records

With “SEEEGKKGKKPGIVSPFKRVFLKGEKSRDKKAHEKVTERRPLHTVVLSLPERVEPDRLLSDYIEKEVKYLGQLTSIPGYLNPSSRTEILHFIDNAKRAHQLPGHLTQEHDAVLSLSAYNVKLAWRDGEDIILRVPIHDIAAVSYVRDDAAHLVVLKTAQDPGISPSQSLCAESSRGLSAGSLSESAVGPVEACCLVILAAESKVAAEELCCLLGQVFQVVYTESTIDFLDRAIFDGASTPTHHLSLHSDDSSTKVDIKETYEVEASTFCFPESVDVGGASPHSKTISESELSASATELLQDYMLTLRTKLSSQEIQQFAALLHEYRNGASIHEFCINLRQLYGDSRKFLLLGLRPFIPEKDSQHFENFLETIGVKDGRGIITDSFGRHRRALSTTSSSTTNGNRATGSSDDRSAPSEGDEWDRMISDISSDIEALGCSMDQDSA” the protein production was “not failed”.
